Article PMC12951562, “SH2scan: Mapping SH2 Domain-Ligand Binding Selectivity for Inhibitors and Degraders” (Journal of Medicinal Chemistry, 2026)

target: T1, CBL (Homo sapiens, UniProt P22681); experiment: biochemical; assay type: binding; conditions: read-out: percent of DMSO vehicle control
T1 construct: the DNA-tagged SH2 domain concentrations used in this study were <0.1 nM; made in house; host or cells: HEK293 (transient transfection; unpurified extract)
T1 sequence (P22681 249-351 limits assumed): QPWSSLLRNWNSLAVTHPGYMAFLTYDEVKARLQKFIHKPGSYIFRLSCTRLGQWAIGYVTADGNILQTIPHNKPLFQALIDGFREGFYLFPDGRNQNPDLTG

Which remaining activity at 10 µM does the source give for `CC(=O)N[C@@H](Cc1ccc(CP(=O)(O)O)cc1)C(=O)NC1(C(=O)N[C@@H](CC(N)=O)C(=O)NCCCc2c(O)ccc3ccccc23)CCCCC1` [CGP78850] here?
Its remaining activity at 10 µM is 76.7 ± 17.1%.

With `CC[C@H](C)[C@H](NC(=O)[C@H](CCC(=O)O)NC(=O)[C@H](CCC(=O)O)NC(=O)[C@H](Cc1ccc(OP(=O)(O)O)cc1)NC(=O)/C=C/c1ccc(O)c(O)c1)C(=O)N[C@@H](CCC(=O)O)C(=O)O` [Caffeic acid-pYEEIE] as the compound, how does the remaining activity at 10 µM read?
The remaining activity at 10 µM was 32.7 ± 4.1%.

`O=C(CCl)Nc1cccc(CNC(=O)[C@H](Cc2ccc(OP(=O)(O)O)cc2)NC(=O)Cc2ccc(F)cc2)c1` [MN551] was tested. Which remaining activity at 10 µM did it give?
Its remaining activity at 10 µM is 38.9 ± 1.8%.

With `NC(=O)CC[C@H](NC(=O)[C@@H]1CC[C@@H]2CCN(C(=O)CCCCCC#Cc3cccc4c3CN(C3CCC(=O)NC3=O)C4=O)C[C@H](NC(=O)c3cc4cc(C(F)(F)P(=O)(O)O)ccc4[nH]3)C(=O)N21)C(=O)NC(c1ccccc1)c1ccccc1` (stereo partly drawn) [SD-36] as the compound, how does the remaining activity at 10 µM read?
The remaining activity at 10 µM was 68.3 ± 19.5%.

`CC(=O)N1CC[C@H]2CC[C@@H](C(=O)N[C@@H](CCC(N)=O)C(=O)NC(c3ccccc3)c3ccccc3)N2C(=O)[C@@H](NC(=O)c2cc3cc(C(F)(F)P(=O)(O)O)ccc3[nH]2)C1` [SI-109] was tested. Which remaining activity at 10 µM did it give?
The remaining activity at 10 µM was 101%.

With `C/C(=C\C(=O)N[C@H](C(=O)N1CCC[C@H]1C(=O)N(c1ccccc1)c1ccc(I)cc1)C(C)(C)C)c1ccc(OP(=O)(O)O)cc1` [STAT6-IN-1] as the compound, how does the remaining activity at 10 µM read?
Its remaining activity at 10 µM is 24.3 ± 1%.

How did the remaining activity at 10 µM turn out when `CC(C)(C)[C@H](NC(=O)/C=C/c1ccc(OP(=O)(O)O)cc1)C(=O)N1CCC[C@H]1C(=O)N(c1ccccc1)c1ccc(I)cc1` [STAT6-IN-3] was run?
The remaining activity at 10 µM was 73.9 ± 11.4%.

`O=C(COc1ccc2cc(C(=O)Nc3ccccc3)ccc2c1)NCc1ccc(OP(=O)(O)O)c(OP(=O)(O)O)c1` [Stafib-1] was tested. Which remaining activity at 10 µM did it give?
Its remaining activity at 10 µM is 85.6 ± 14.2%.

target: T2, SYK(SH2dom1.dom2.) (Homo sapiens, UniProt P43405); experiment: biochemical; assay type: binding; conditions: not given
T2 construct: the SH2 domains for these targets are expressed in tandem constructs; made in house; host or cells: HEK293 (transient transfection), unpurified extract

How did the Kd turn out when `CC(=O)N[C@@H](CC(N)=O)C(=O)N[C@@H](CCC(N)=O)C(=O)N[C@@H](CC(C)C)C(=O)N[C@@H](Cc1ccc(OP(=O)(O)O)cc1)C(=O)N[C@@H](CC(N)=O)C(=O)N[C@@H](CCC(=O)O)C(=O)N[C@@H](CC(C)C)C(=O)N[C@@H](CC(N)=O)C(=O)N[C@@H](CC(C)C)C(=O)NCC(=O)N[C@@H](CCCN=C(N)N)C(=O)N[C@@H](CCCN=C(N)N)C(=O)N[C@@H](CCC(=O)O)C(=O)N[C@@H](CCC(=O)O)C(=O)N[C@@H](Cc1ccc(OP(=O)(O)O)cc1)C(=O)N[C@@H](CC(=O)O)C(=O)N[C@H](C(=O)N[C@@H](CC(C)C)C(=O)N[C@@H](CC(=O)O)C(N)=O)C(C)C` was run?
The Kd was 7 ± 2.05 nM.
